From patent publication EP4837574A1, “USE OF DNJ OR DERIVATIVE THEREOF IN PREPARING ANTI-SENESCENCE DRUG” (dated 2026)

Assays:
[1] = system: human umbilical vein endothelial cells (Huvec cells); experiment: SA-β-Gal staining, H2O2-induced senescence, pre-administration (Example 1); settings: 30 µM, pre-administration 24 hours, then 200 µM H2O2 24 hours, FIG. 9; for protective effects on senescence compared with NMN: NMN 30 µM as positive control; for increase in the number of senescent cells (SA-β-Gal staining-positive cells): compared with the H2O2 group
Protocol: (§1) Culture conditions for human umbilical vein endothelial cells (Huvec cells) are as follows: The Huvec cells were cultured in an ECM culture medium (SclenCell) and passaged and seeded when cultured to a density of 70% to 80% in a culture dish. The cells were washed 1 time with PBS, 0.25% trypsin (Gibco) was added for digestion for 2-3 minutes, and then an ECM culture medium was added to terminate the digestion. The cells were pipetted to be detached, collected into a 15 mL centrifuge tube, and centrifuged at 1,000 rpm for 5 minutes. The supernatant was discarded, a new ECM culture medium was added, and the cells were pipetted uniformly, seeded into a 12-well or 24-well plate (at a density of 70% to 80%), and cultured in a 5% CO2 incubator at 37°C. After cell adherence, the next operation was performed.
Experimental operation and grouping are as follows: Experimental grouping: A control group (Control), a modeling group (H2O2), a DNJ drug group (H2O2 + DNJ, H2O2 + DNJ-1, H2O2 + DNJ-3a, H2O2 + DNJ-3b, H2O2 + DNJ-5a), and a positive control drug group (H2O2 + NMN) were used.
(§2) Working concentrations of each drug and modeling agent: The concentrations of DNJ, DNJ-1, DNJ-3a, DNJ-3b, DNJ-5a, and NMN were all 30 µM; and the concentration of the modeling agent, H2O2, was 200 µM.
Experimental operation: After the supernatant was discarded, the cells were washed 3 times with PBS, drug solutions formulated in advance with a culture medium were added, and the blank group and the modeling group were replaced with a blank culture medium without drugs. After culturing for 24 hours, the supernatant was discarded, the cells were washed 3 times with PBS, a blank culture medium was added in the blank group, and a culture medium containing 200 µM H2O2 was added in the modeling group and the administration group. After treatment for 24 hours, the cells were subjected to SA-β-Gal staining operation using a cellular senescence β-galactosidase staining kit (Beyotime, C0602).
(§3) The workflow for SA-β-Gal staining of the cells is as follows: For the cells cultured in a 6-well plate, a cell culture solution was sucked away, the cells were washed 1 time with PBS, and 1 mL of an SA-β-Gal staining fixative was added for fixation at room temperature for 15 minutes. For other types of culture plates, the dosages of the fixative and subsequent solutions were used in operation with reference to this ratio. The cell fixative was sucked away, and the cells were washed 3 times with PBS, for 3 minutes each time. PBS was sucked away, and 1 mL of a staining working solution was added to each well. A method for formulating the staining working solution is as follows: A β-galactosidase staining solution A (10 µL), a β-galactosidase staining solution B (10 µL), a β-galactosidase staining solution C (930 µL), and an X-Gal solution (50 µL) were used. The cells were incubated overnight at 37°C, and the 6-well plate was sealed with a parafilm or a plastic wrap to prevent evaporation. Photographing was performed for record using a 20× objective under a microfluidic live cell real-time analysis system (Thermo), cell counting was performed using ImageJ software (National Institutes of Health, v 1.8.0), and ANOVA data analysis of multiple groups (mean ± SD) was performed using Graphpad Prism software (GraphPad Software, v 9.0.0).
Compared with normal cells, senescent cells have the characteristic of high expression of SA-β-Gal. In the cellular senescence β-galactosidase staining kit using X-Gal as a substrate, a deep blue product is generated under the catalysis of senescence-specific β-galactosidase, thereby determining whether the cells are senescent.

[2] = system: rat cardiomyocytes (H9c2 cells); experiment: SA-β-Gal staining, H2O2-induced senescence, pre-administration (Example 6); settings: pre-administration 24 hours, then 400 µM H2O2 48 hours; FIG. 14
Protocol: as §3
Culture conditions for rat cardiomyocytes (H9c2 cells) are as follows: The cells were cultured in a high-glucose DMEM culture medium containing 10% FBS and passaged and seeded when cultured to a density of 70% to 80% in a culture dish. The cells were washed 1 time with PBS, 0.25% trypsin was added for digestion for 2-3 minutes, and a high-glucose DMEM culture medium containing 10% FBS was added to terminate the digestion. The cells were pipetted to be detached, collected into a 15 mL centrifuge tube, and centrifuged at 1,000 rpm for 5 minutes. The supernatant was discarded, a new ECM culture medium was added, and the cells were pipetted uniformly, seeded into a 12-well or 24-well plate (at a density of 70% to 80%), and cultured in a 5% CO2 incubator at 37°C. After cell adherence, the next operation was performed.
The anti-aging activity of drugs was detected in the H9c2 cells. In the H9c2 cells, stimulation was performed with 400 µM H2O2 for 48 hours for modeling. […] The pharmacological activity of DNJ or its derivatives DNJ-1, DNJ-3a, DNJ-3b, and DNJ-5a was detected in the method of pre-administration treatment for 24 hours.

[3] = system: human iPSC-derived mesenchymal stem cells (iPSC-MSC); experiment: SA-β-Gal staining, H2O2-induced senescence, pre-administration (Example 7); settings: pre-administration 24 hours; 40 µM H2O2 2 hours, then new medium 24 hours; FIG. 15
Protocol: as §3
Culture conditions for human iPSC-derived mesenchymal stem cells (iPSC-MSC) are as follows: The cells were cultured in a MesenCult-ACF Plus Medium (STEMCELL, Cat#05446) and passaged and seeded when cultured to a density of 70% to 80% in a culture dish. After the cells were washed 1 time with DPBS (Gibco), an ACF Enzymatic Dissociation Solution (STEMCELL, Cat#05426) was added for digestion for 2-3 minutes, and then an ACF Enzyme Inhibition Solution (STEMCELL, Cat#05426) was added to terminate the digestion. The cells were pipetted to be detached, collected into a 15 mL centrifuge tube, and centrifuged at 300 G for 8 minutes. The supernatant was discarded, a new MesenCult-ACF Plus Medium was added, and the cells were pipetted uniformly, seeded into a 12-well or 24-well plate (at a density of 70% to 80%), and cultured in a 5% CO2 incubator at 37°C. After cell adherence, the next operation was performed.
The anti-aging activity of drugs was detected in iPSC-MSC. In iPSC-MSC, stimulation was performed with 40 µM H2O2 for 2 hours, followed by replacement with a new culture medium for continued culture for 24 hours to construct a cell senescence model. Compared with a control group, a significant increase in the number of SA-β-Gal staining-positive cells in an H2O2 group confirms successful establishment of an iPSC-MSC senescence model. The pharmacological activity of DNJ or its derivatives was detected in the method of pre-administration treatment for 24 hours.

[4] = system: human umbilical vein endothelial cells (Huvec cells); experiment: SA-β-Gal staining, D-galactose-induced senescence, pre-administration (Example 4); settings: 30 µM, pre-administration 24 hours, then 40 g/L D-gal 24 hours; FIG. 12
Protocol: as §1, §2, §3
The anti-aging activity of drugs was detected in a stress-induced senescence model of human umbilical vein endothelial cells induced by D-galactose. A basic method refers to Example 1, with differences in the modeling method as follows: a cell senescence model was constructed by stimulation with 40 g/L D-gal for 24 hours.

[5] = system: human umbilical vein endothelial cells (Huvec cells); experiment: SA-β-Gal staining, H2O2-induced senescence, post-modeling administration (Example 3); settings: 30 µM, added after stimulation with H2O2 for 24 hours; FIG. 11
Protocol: as §1, §2, §3
A basic method refers to Example 1, with differences in the administration method as follows: after inducing by H2O2 and constructing a human umbilical vein endothelial cell senescence model, treatment with DNJ or its derivatives was performed separately, and the anti-aging activity of drugs was detected.

[6] = system: human umbilical vein endothelial cells (Huvec cells); experiment: SA-β-Gal staining, H2O2-induced senescence, simultaneous administration (Example 2); settings: 30 µM, simultaneous treatment with 200 µM H2O2 for 24 hours; FIG. 10
Protocol: as §1, §2, §3
A basic method refers to Example 1, with differences in the administration method as follows: while inducing by H2O2 and constructing a human umbilical vein endothelial cell senescence model, treatment with DNJ or its derivatives was performed separately, and the anti-aging activity of drugs was detected.

SMILES | protective effects on senescence compared with NMN [1] | increase in the number of senescent cells (SA-β-Gal staining-positive cells) [1] | number of SA-β-Gal staining-positive H9c2 cells [2] | number of SA-β-Gal staining-positive iPSC-MSC cells [3] | number of SA-β-Gal staining-positive cells [4] | expression of SA-β-Gal and cell senescence [5] | production of senescent cells induced by H2O2 (number of SA-β-Gal staining-positive cells) [6]
OC[C@@H]1[C@@H](O)[C@H](O)[C@@H](O)CN1CCc1ccccc1 | significantly better than that of NMN | significantly inhibited | reduce | reduce | significantly reduced | significantly reduce | significantly reduce
CC(C)(C)C(=O)OC[C@H]1NC[C@H](O)[C@@H](O)[C@@H]1O | significantly better than that of NMN | significantly inhibited | reduce | reduce | significantly reduced | significantly reduce | significantly reduce
OC[C@@H]1[C@@H](O)[C@H](O)[C@@H](O)CN1CCc1ccc(F)cc1 | – | significantly inhibited | reduce | reduce | significantly reduced | significantly reduce | significantly reduce
O=C(CCCC[C@@H]1CCSS1)N1C[C@H](O)[C@@H](O)[C@H](O)[C@H]1CO | significantly better than that of NMN | significantly inhibited | reduce | reduce | significantly reduced | significantly reduce | significantly reduce
